# Earlier results in patent US20220288273A1, “OSTEOINDUCTIVE MODIFIED GELATIN HYDROGELS AND METHODS OF MAKING AND USING THE SAME” (THE REGENTS OF THE UNIVERSITY OF CALIFORNIA, priority 2019, published 2022).
# Details: in vivo
molecule,measurement,value
"rhBMP2: human recombinant bone morphogenetic protein 2 (protein, UniProt P12643 283-396, looked up) Bone morphogenetic protein 2: QAKHKQRKRLKSSCKRHPLYVDFSDVGWNDWIVAPPGYHAFYCHGECPFPLADHLNSTNHAIVQTLVNSVNSKIPKACCVPTELSAISMLYLDENEKVVLKNYQDMVVEGCGCR",efficacy of peri-implant bone regeneration,30-40%
